The test system of assay [1] is HBE. The experiment in a line: Anti-inflammatory activity against HBE cells assessed as inhibition of LPS-induced IL-8 level pretreated for 30 mins followed by LPS treatment for 24 hrs by ELISA. Conditions: Homo sapiens, dose <= 5.0 µM, time 24.5 hrs.
In assay [2] the test system is HBE. Briefly: Anti-inflammatory activity against HBE cells assessed as inhibition of LPS-induced IL-6 level pretreated for 30 mins followed by LPS treatment for 24 hrs by ELISA. Conditions: Homo sapiens, dose <= 5.0 µM, time 24.5 hrs.

Take `Cc1ccc(Nc2nccc(-c3cn(C)c4ccccc34)n2)cc1N.Cl`: the inhibition result in the assay on HBE [1] and in the assay on HBE [2] was “Dose-dependent-effect” throughout.

These data come from ChEMBL document CHEMBL6087451, “Design, Synthesis, and Biological Evaluation of 2-Arylaminopyrimidine Derivatives as Dual Cathepsin L and JAK Inhibitors for the Treatment of Acute Lung Injury” (J Med Chem, 2025).
